Results: patent US6800672B2, “Biodegradable compositions comprising poly(cycloaliphatic phosphoester) compounds, articles, and methods for using the same” (Guilford Pharmaceuticals, Inc., priority 1997, dated 2004)

Tests used:
[1] = In vivo release of IL-2 from P(CHDM-HOP), serum IL-2 after subcutaneous injection; set-up: species or system Balb/c mice; conditions: bolus injection, same dose of IL-2
Protocol: A sample of P(CHDM-HOP) was sterilized by γ-irradiation at 2.5 MRads and aseptically blended with IL-2 in the same manner as described above in Example 15. Six female Balb/c mice, 6-weeks of age, were injected subcutaneously with 50 mg of the IL-2 polymer paste sample containing 3.5×10^5 IU of IL-2. Two additional mice received the same dose of IL-2 as a bolus injection, and two additional mice received blank P(CHDM-HOP) injection as a control.
At various time points, 50 μL of blood samples were collected from the tail vein. Blood samples from each group were combined and diluted with HBSS supplemented with 1% BSA. The serum was separated and assayed for IL-2 as described above. Sustained release of IL-2 was attained in vivo, with detectable levels of IL-2 present in the serum, for up to three weeks after injection of the P(CHDM-HOP)/IL-2-loaded paste. In contrast, the IL-2 levels were undetectable after 48 hours in the mice injected with the IL-2 bolus. FIG. 13 graphically compares the pharmacokinetics of IL-2 administered either as a bolus or dispersed in a P(CHDM-HOP) matrix. FIG. 14 depicts the histological examination of a subcutaneous injection site from this in vivo experiment.

[2] = tested on: melanoma cell line B16/F10 tumors; conditions: treatment injected Day 3 (3d)

Bolus IL-2: interleukin-2 (Chiron) dissolved in isotonic solution, bolus injection
time after which IL-2 levels were undetectable [1]: 48 h
Tumor Volume After Tumor Injection, 28 days [2]: 1946 ± 505.6 mm^3
Tumor Volume After Tumor Injection, 42 days [2]: 3282 ± 1403.3 mm^3
